Here are results for 2 molecules from ChEMBL document CHEMBL4828757, “Further hit optimization of 6-(trifluoromethyl)pyrimidin-2-amine based TLR8 modulators: Synthesis, biological evaluation and structure-activity relationships” (Eur J Med Chem, 2021).

The assay has as its target T1, Toll-like receptor 7 (Homo sapiens) (UniProt Q9NYK1).
T1 sequence (whole entry): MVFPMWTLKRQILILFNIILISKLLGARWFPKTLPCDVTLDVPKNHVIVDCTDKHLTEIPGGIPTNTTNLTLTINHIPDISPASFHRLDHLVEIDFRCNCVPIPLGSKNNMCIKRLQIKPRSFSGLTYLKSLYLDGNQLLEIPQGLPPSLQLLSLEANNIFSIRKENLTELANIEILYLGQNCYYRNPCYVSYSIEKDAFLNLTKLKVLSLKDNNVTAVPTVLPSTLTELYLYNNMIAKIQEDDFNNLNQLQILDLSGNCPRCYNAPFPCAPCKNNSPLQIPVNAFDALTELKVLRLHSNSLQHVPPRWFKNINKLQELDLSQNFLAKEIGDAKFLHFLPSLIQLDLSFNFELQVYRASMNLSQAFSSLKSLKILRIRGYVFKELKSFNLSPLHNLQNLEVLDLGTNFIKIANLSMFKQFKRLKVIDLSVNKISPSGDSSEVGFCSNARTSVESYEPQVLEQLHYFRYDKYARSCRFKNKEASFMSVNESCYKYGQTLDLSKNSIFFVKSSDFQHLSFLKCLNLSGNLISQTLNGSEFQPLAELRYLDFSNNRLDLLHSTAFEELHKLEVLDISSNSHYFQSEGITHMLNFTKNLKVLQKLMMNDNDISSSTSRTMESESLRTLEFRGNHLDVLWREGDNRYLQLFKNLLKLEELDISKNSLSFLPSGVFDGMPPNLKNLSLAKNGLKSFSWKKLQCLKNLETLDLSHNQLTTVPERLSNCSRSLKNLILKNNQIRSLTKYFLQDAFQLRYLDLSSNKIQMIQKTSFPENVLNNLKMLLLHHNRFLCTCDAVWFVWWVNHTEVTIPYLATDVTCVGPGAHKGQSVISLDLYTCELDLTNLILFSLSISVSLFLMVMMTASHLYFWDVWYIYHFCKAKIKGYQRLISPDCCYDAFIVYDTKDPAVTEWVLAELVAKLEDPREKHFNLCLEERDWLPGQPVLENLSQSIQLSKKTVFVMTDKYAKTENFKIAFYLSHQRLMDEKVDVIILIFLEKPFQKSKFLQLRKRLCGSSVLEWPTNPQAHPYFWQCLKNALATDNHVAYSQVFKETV
Nature of the assay: Negative modulator activity at human TLR7 expressed in HEK-Blue hTLR7 cells assessed as inhibition of CL075 stimulated NF-kappaB activation up to 25 uM preincubated for 1 hr followed by CL075 stimulation for 24 hrs by SEAP-based colorimetric assay. The class given is cell-based. As to conditions: filed as modulator, dose microM <=25, time 25.0 hrs.

Calls of active or inactive are those of the source. The rule behind the calls is not given here.

On to `CS(=O)(=O)c1nc(-c2ccco2)cc(C(F)(F)F)n1`, for which the inhibition entry was “Active”. For `OCc1ccc(CNc2nc(-c3ccco3)cc(C(F)(F)F)n2)cc1`, the inhibition entry was “Active”.
